Test results from PMC2744590 (Biochimica et biophysica acta, 2009).

Protein sequences, listed by entry. Tags and fused reporters are not part of them. Residues count along the entry.
UniProt P09483, 31-630: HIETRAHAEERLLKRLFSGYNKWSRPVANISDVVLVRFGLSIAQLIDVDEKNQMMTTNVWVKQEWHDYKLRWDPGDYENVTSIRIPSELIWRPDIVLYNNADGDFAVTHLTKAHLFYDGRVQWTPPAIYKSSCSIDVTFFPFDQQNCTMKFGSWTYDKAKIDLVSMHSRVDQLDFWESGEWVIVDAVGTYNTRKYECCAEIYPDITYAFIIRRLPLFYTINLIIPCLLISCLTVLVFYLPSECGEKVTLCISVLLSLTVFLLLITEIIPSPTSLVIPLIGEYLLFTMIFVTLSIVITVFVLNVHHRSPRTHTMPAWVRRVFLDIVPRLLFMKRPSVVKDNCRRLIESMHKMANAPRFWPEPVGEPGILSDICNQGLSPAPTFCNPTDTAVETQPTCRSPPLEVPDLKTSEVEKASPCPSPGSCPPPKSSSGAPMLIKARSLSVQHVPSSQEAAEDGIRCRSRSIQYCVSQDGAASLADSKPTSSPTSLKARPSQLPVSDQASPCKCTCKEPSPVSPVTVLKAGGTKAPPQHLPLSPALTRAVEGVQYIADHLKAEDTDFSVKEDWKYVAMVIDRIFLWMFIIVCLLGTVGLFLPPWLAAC
UniProt P12392, 25-495: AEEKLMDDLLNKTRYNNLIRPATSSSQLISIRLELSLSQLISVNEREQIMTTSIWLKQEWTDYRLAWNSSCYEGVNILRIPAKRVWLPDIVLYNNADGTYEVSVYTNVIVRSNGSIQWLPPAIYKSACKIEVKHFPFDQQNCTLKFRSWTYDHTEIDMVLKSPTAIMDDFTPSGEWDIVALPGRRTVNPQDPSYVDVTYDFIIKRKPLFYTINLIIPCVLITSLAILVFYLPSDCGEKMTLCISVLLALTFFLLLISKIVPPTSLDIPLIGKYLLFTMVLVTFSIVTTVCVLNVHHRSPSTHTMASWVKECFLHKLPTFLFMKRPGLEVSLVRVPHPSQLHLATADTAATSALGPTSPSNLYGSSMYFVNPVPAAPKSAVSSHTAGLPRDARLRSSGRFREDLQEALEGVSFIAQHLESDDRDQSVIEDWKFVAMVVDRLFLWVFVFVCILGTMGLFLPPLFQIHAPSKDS

Assays:
[1] = test system: α3β2/α3β4; settings: higher affinity to β2; cited from earlier work
[2] = test system: α4β2/α4β4; settings: higher affinity to β2; cited from earlier work
[3] = test system: α2β2/α2β4; settings: higher affinity to β2; cited from earlier work
[4] = biological target: rat α4β4 nAChRs (Rattus norvegicus, UniProt P09483+P12392); type: binding; settings: 1 nM probe, 254 nm, 30 or 15 min

[^125I]epibatidine
fold difference in affinity, β2- compared to β4-containing receptors [1]: ~22 fold
fold difference in affinity, β2- compared to β4-containing receptors [2]: ~3 fold
fold difference in affinity, β2- compared to β4-containing receptors [3]: ~8 fold
pattern of photoincorporation [4]: incorporated selectively into the β4 subunit
